Assay results: published antibiotic growth screens (doi:10.1038/s41589-023-01349-8)
This is one part of the list.

The compounds below were run on A. baumannii ATCC 17978 (assay: relative growth (fraction of control); higher = less inhibition). Details: 50 µM.

Row | Compound | relative growth
1 | CC1(C)CCC2=C(O1)c1ccccc1C(=O)C2=O [beta-LAPACHONE] | 1.47
2 | Cn1c(=O)c(C(=O)NCCO)c(O)c2ccccc21 | 1.02
3 | COc1ccccc1S(=O)(=O)N[C@@H]1CC[C@H](CCNC(=O)C2CC2)O[C@@H]1CO | 0.954
4 | Cn1c(=O)[nH]c(=O)c2c(=O)cc[nH]c21 | 1.14
5 | O=C(C[C@H]1C=C[C@H](NC(=O)Cc2ccccn2)[C@H](CO)O1)NCCc1ccncc1 | 0.994
6 | COc1ccc(C(=O)Nc2cccc(CN3C(=O)[C@@]4(O[C@@H](CC(=O)N(CCO)Cc5ccccc5)[C@H]([Si](C)(C)c5ccc(OC)cc5)[C@H]4C)c4ccccc43)c2)cc1 | 1.08
7 | NCC[C@@H]1CC[C@@H](NC(=O)C2CCCCC2)[C@H](CO)O1 | 0.988
8 | CC(=O)O[C@H]1C[C@@H](OC(C)=O)C(C)(C)C2CC(=O)[C@]3(C)C(CC[C@@]4(C)[C@H](c5ccoc5)OC(=O)[C@H]5O[C@]543)[C@]21C (stereo partly specified) | 1.03
9 | COc1ccc([N+](=O)[O-])cc1CNCCO | 1
10 | CC(=O)NCCCC[C@@H]1NC(=O)[C@@H]2C[C@H](C(=O)NCCCCCCNC(=O)CS)[C@H](c3ccc(O)cc3)N2C1=O | 0.899
11 | O=C(CS)NCCCCCCNC(=O)[C@H]1C[C@H]2C(=O)NCC(=O)N2[C@H]1c1ccc(O)cc1 | 0.898
12 | Cc1noc(C)c1S(=O)(=O)/N=C/N(C)C | 1.14
13 | O=C(C[C@H]1C=C[C@@H](NC(=O)c2ccc(F)cc2)[C@@H](CO)O1)NCc1ccncn1 | 0.999
14 | CC(C)C(=O)Nc1ccc([N+](=O)[O-])c(C(F)(F)F)c1 | 0.943
15 | CO[C@@H]1[C@@H](OC(N)=O)[C@@H](O)[C@H](Oc2ccc3c([O-])c(NC(=O)c4ccc(O)c(CC=C(C)C)c4)c(=O)oc3c2C)OC1(C)C.[Na+] | 0.143
16 | O=C(Nc1ccc(Cl)cc1)c1sc2ccccc2c1Cl | 1.21
17 | Cc1ccc2oc(=O)cc(Cl)c2c1 | 1.1
18 | COc1ccc(COC[C@]23N=C4SCc5ccccc5C(=O)N4[C@H](c4ccccc4O2)[C@H]3COC(=O)c2ccccc2)cc1 | 1.09
19 | O=C1O[C@@H](c2ccccc2)[C@@H](c2ccccc2)N2[C@@H](c3ccc(O)cc3)[C@]3(C(=O)Nc4ccc(C#CC5(O)CCCCCC5)cc43)[C@@H](C(=O)NC[C@H](O)c3ccccc3)[C@H]12 | 1.02
20 | C=CC(=O)N1C[C@H]2CC[C@H](O)[C@H]2C1 | 1.01
21 | COCCNC(=O)C[C@@H]1CC[C@@H]2[C@H](COC[C@@H](O)CN2S(=O)(=O)c2ccccc2C)O1 | 0.973

Row | Compound | relative growth
22 | CC(=O)NCCCC[C@@H]1NC(=O)[C@@H]2C[C@H](C(=O)NCCCCN(C)C)[C@H](c3cccc(OCCO)c3)N2C1=O | 1.08
23 | NC(=O)c1ccc[n+](CC(=O)N2CCCCC2)c1 | 1
24 | COC(=O)C[C@H]1CC[C@H]2[C@@H](COC[C@@H](O)CN2S(=O)(=O)c2ccc(F)cc2)O1 | 0.848
25 | C=CC[C@H](CC(=O)NCCO)C(=O)N[C@H](COC(=O)[C@H](CC=C)CC(=O)OC(C)(C)C)Cc1ccccc1 | 0.865
26 | CC(=O)OC1CCC2(C)C3CC(=O)C4(C)C(CC5OC6(CCC(C)CO6)[C@@H](C)C54)C3CC[C@H]2C1 (stereo partly specified) | 0.98
27 | C[C@@H]1CN([C@H](C)CO)S(=O)(=O)c2ccc(-c3cncnc3)cc2O[C@@H]1CN(C)C(=O)c1ccc2c(c1)OCO2 | 1.1
28 | CC(C)CC#Cc1ccc2c(c1)O[C@H](CN(C)S(=O)(=O)c1cccc(F)c1)[C@@H](C)CN([C@H](C)CO)S2(=O)=O | 1.17
29 | CCC[C@@H](N[C@H]1CCS(=O)(=O)C1)C(=O)O | 1.15
30 | C[C@]12C[C@@H](O)[C@@H]3C[C@@]1(O[C@@H]1O[C@H](CO)[C@@H](O)[C@H](O)[C@H]1O)[C@@]3(COC(=O)c1ccccc1)C(=O)O2 | 1.03
31 | CC(CN(C)C)CN1c2ccccc2CCc2ccccc21.O=C(O)/C=C\C(=O)O (stereo unspecified) | 0.966
32 | CC1COc2c(N3CCN(C)CC3)c(F)cc3c(=O)c(C(=O)O)cn1c23 (stereo unspecified) | 0.154
33 | N[C@@H](CSSC[C@H](N)C(=O)O)C(=O)O | 0.94
34 | Cl.NCc1ccc(S(N)(=O)=O)cc1 | 0.99
35 | Cc1cccc(/C=C2\CS/C(=C\c3cccc(C)c3)C2=O)c1 | 1.08
36 | O=C(CN1CCOCC1)N[C@@H]1CC[C@H](CCNC(=O)C2CCCCC2)O[C@@H]1CO | 1.04
37 | CC(=O)SCC(Cc1ccccc1)C(=O)NCC(=O)OCc1ccccc1 (stereo unspecified) | 0.886
38 | O=c1n(-c2ccc(F)cc2)nc2n1CCCN2 | 1
39 | COc1cc(C[C@H]2CO[C@H](c3ccc(O)c(OC)c3)[C@@H]2CO[C@H]2O[C@@H](CO)[C@@H](O)[C@@H](O)[C@@H]2O)ccc1O | 0.992
40 | CC(=O)O[C@H]1CC[C@@]2(C)C(=CCC3C2CC[C@@]2(C)C3CC[C@@H]2C(C)CCCC(C)C)C1 (stereo partly specified) | 0.963
41 | C[N+](C)(C)[C@@H]1[C@H]2OC[C@H](O)[C@H]2O[C@@H]1O | 1.11
